Activation data for 82 compounds are collected here from PubChem BioAssay AID624291 (National Center for Advancing Translational Sciences (NCATS), 2012).

The list shows a part of the results, in another mix than the full data. Results filed as inconclusive are left out. Active and inactive are the calls of the source. Calls follow the shape of the dose curve; as a rule, active = well fitted activation curve with a large enough effect; inconclusive = small, poorly fitted or top-dose-only effect; inactive = no such curve, though single readings can be large or run the other way.

A short description of the experiment: qHTS for Activators of Integrin-Mediated Alleviation for Muscular Dystrophy.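 Also: 100% = response of the positive control SU9516; nearly all actives have a fitted effect of over 60% in size.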 The note with it: alpha7betagal myoblasts, beta-gal FDG fluorescence, 48 h; at 38.3 µM (top of the series).
`CCCOc1ccc(NP(C)(=O)Oc2ccc(Cl)cc2)cc1` (configuration not stated): the activation is inactive: -5.45%. For `CP(=O)(Nc1ccc(SC(F)(F)F)cc1)Oc1ccccc1` (configuration not stated), the activation was inactive: 1.01%.

Consider `CN1CCCCC1COC(=O)C1(O)c2ccccc2CCc2ccccc21` (configuration not stated), for which the activation is inactive: 11%. Take `COc1ccccc1OP(C)(=O)Nc1c(C)cccc1C` (configuration not stated): the activation is inactive: -10.2%. Turning to `O=[N+]([O-])c1cc([N+](=O)[O-])c(Nc2nnnn2CCO)c([N+](=O)[O-])c1`, the activation was inactive: 5.99%. As for `Cc1nc2ccc3ccccc3c2s1.O=[N+]([O-])c1cc([N+](=O)[O-])c(O)c([N+](=O)[O-])c1`, the figure is inactive: 16.4%; as for `O=[N+]([O-])c1cc([N+](=O)[O-])c(-c2cnn(-c3ccccc3)c2)c([N+](=O)[O-])c1`, inactive: 6.53%. For `O=[N+]([O-])c1cc([N+](=O)[O-])c(-n2nnc3ccccc32)c([N+](=O)[O-])c1` the value was inactive: 5.4%; for `Cc1cc(C)cc(OP(C)(=O)Nc2ccccn2)c1` (configuration not stated), inactive: -21.4%. For `CP(=O)(Nc1cccc(Br)c1)Oc1ccccc1` (configuration not stated) the value was inactive: 25.9%. For `Cc1ccc(C)c(NP(C)(=O)Oc2ccccc2)c1` (configuration not stated), the activation was inactive: 26.4%. For `Cc1cc(C)cc(OP(C)(=O)Nc2ccc(C)cc2C)c1` (configuration not stated) the value was inactive: 13.3%; for `CCOC(=O)c1ccc(NP(C)(=O)Oc2cc(C)cc(C)c2)cc1` (configuration not stated), inactive: 14.5%; for `COc1ccccc1OP(C)(=O)Nc1cccc(Br)c1` (configuration not stated), inactive: -5.43%.

For `CC1=NCCc2c1[nH]c1ccccc21.O=[N+]([O-])c1cc([N+](=O)[O-])c(O)c([N+](=O)[O-])c1`, the activation was inactive: 12.3%. As to `COc1ccc(OP(C)(=O)Nc2cccc(F)c2)cc1` (configuration not stated), the activation is inactive: 22.4%. In the case of `COc1ccccc1OP(C)(=O)Nc1cc(Cl)ccc1C` (configuration not stated), the activation is inactive: 4.13%. As for `Cc1cc(C)cc(OP(C)(N)=O)c1` (configuration not stated), the figure is inactive: -12.4%; as for `CCOC(=O)c1ccc(NP(C)(=O)Oc2ccccc2)cc1` (configuration not stated), inactive: 12%; as for `Cc1ccc(NP(C)(=O)Oc2ccccc2)c(C)c1` (configuration not stated), inactive: 24.5%. As for `COc1ccccc1OP(C)(=O)Nc1ccc(C)cc1` (configuration not stated), the figure is inactive: 7.75%.

As to `Cc1cccc(C)c1OP(C)(N)=O` (configuration not stated), the activation is inactive: 6.97%. As for `CC(C)(C)c1ccc(OP(C)(=O)Nc2ccc(SC(F)(F)F)cc2)cc1` (configuration not stated), the figure is inactive: -24.3%.

As for `O=[N+]([O-])c1ccc2c(c1)C=Nc1ccccc1O2`, the activation is inactive: -49.2%. For `O=[N+]([O-])c1cc([N+](=O)[O-])c(Nc2cccnc2)c([N+](=O)[O-])c1` the value was inactive: -12.6%; for `CCN(CC)CCCOC(=O)C(O)(c1ccccc1)c1ccccc1`, inactive: -8.4%.

On to `CP(=O)(Nc1ccccn1)Oc1ccc(Cl)cc1` (configuration not stated), for which the activation is inactive: -9.5%.

In the case of `CCOP(C)(=S)SCC(=O)NC(C)C(=O)O` (configuration not stated), the activation is inactive: -4.37%. As for `O=[N+]([O-])c1cc([N+](=O)[O-])c(O)c([N+](=O)[O-])c1.c1ccc(Oc2ccncc2)cc1`, the figure is inactive: 20.8%; as for `CCOC(=O)c1ccc(NP(C)(=O)Oc2ccc(OC)cc2)cc1` (configuration not stated), inactive: -14.7%. With `CP(=O)(NC(=O)Nc1ccccc1)Oc1ccccc1` (configuration not stated), the activation was inactive: -2.4%. For `CCc1ccc(OP(C)(=O)N2CCN(c3ccc([N+](=O)[O-])cc3)CC2)cc1` (configuration not stated) the value was inactive: 5.54%; for `CP(=O)(Oc1ccccc1)OC(c1ccccc1)C(F)(F)F` (configuration not stated), inactive: -16%; for `CP(=O)(Nc1ccc(SC(F)(F)F)cc1)Oc1ccc(Cl)cc1` (configuration not stated), inactive: 7.71%. For `Cc1cccc(C)c1OP(C)(=O)Nc1ccc(SC(F)(F)F)cc1` (configuration not stated) the value was inactive: 23.3%. As for `COc1ccccc1OP(C)(=O)Nc1ccccc1` (configuration not stated), the figure is inactive: -17%. As to `CP(=O)(Nc1ccccc1Br)Oc1ccccc1` (configuration not stated), the activation was inactive: -14.9%.

On to `CP(=S)(Nn1cnnc1)Oc1ccccc1` (configuration not stated), for which the activation is inactive: 12.2%. `CP(=O)(OC12CC3CC(CC(C3)C1)C2)OC12CC3CC(CC(C3)C1)C2`: the activation was inactive: 0.13%. As to `CCOC(=O)c1ccc(NP(C)(=O)Oc2ccc(Cl)cc2)cc1` (configuration not stated), the activation is inactive: -10.4%. On to `Nc1ccc2c(ccc3cccnc32)n1.O=[N+]([O-])c1cc([N+](=O)[O-])c(O)c([N+](=O)[O-])c1`, for which the activation was inactive: 1.41%. As for `CN(C)C(=O)c1c([N+](=O)[O-])cc([N+](=O)[O-])cc1[N+](=O)[O-]`, the figure is inactive: -75.2%; as for `CP(=O)(Nc1ccc(Cl)cc1)Oc1ccc(F)cc1` (configuration not stated), inactive: 10.1%; as for `COc1ccccc1OP(C)(=O)Nc1ccccc1Br` (configuration not stated), inactive: 2.79%. As for `CC(C)(C)c1ccc(OP(C)(=O)O)cc1`, the figure is inactive: 8.91%; as for `CCc1ccc(OP(C)(=O)Nc2cccnc2)cc1` (configuration not stated), inactive: 1.72%; as for `CP(=O)(Oc1ccccc1)N1CCOC1=O` (configuration not stated), inactive: -6.05%. In the case of `O=C(OCCCN1CCCC1)C(O)(c1ccccc1)C1CCCCC1` (configuration not stated), the activation was inactive: -32.1%. Regarding `COc1ccccc1OP(C)(=O)Nc1c(C)n(C)n(-c2ccccc2)c1=O` (configuration not stated), the activation was inactive: -0.898%. For `COc1ccc(OP(C)(=O)Nc2ccc(Br)cc2)cc1` (configuration not stated) the value was inactive: 2.76%; for `CCN(CC)CC(O)COC(=O)C(O)(c1ccccc1)C1CCCCC1` (configuration not stated), inactive: 18.7%; for `CCc1ccc(OP(C)(=O)O)cc1`, inactive: 11.7%.

For the compound `COc1ccccc1OP(C)(=O)Nc1ccc(C)cc1C` (configuration not stated), the activation was inactive: 2.73%.

Turning to `CP(=O)(Nc1ccccn1)Oc1ccccc1` (configuration not stated), the activation is inactive: 6.51%. With `Cc1c(NP(C)(=O)Oc2ccc(C(C)C)cc2)c(=O)n(-c2ccccc2)n1C` (configuration not stated), the activation is inactive: -3.67%. In the case of `O=[N+]([O-])c1cc([N+](=O)[O-])c(Nc2ccccn2)c([N+](=O)[O-])c1`, the activation was inactive: -63.7%.

As for `CN(C)CCOC(=O)C(O)(c1ccccc1)C1CCCC1` (configuration not stated), the activation is inactive: -4.74%.

Take `COc1ccc(OP(C)(=O)Nc2ccccn2)cc1` (configuration not stated): the activation was inactive: 4.83%. As for `COc1ccccc1OP(C)(=O)Nc1ccc(Br)cc1` (configuration not stated), the figure is inactive: 14.3%; as for `CP(=O)(Nc1ccc(Cl)cc1Cl)Oc1ccccc1` (configuration not stated), inactive: 2.36%; as for `CCCCCCCCCCCCCCCC1C[N+](C)(C)CCOP(C)(=O)O1` (configuration not stated), inactive: 18.3%. For `CP(=O)(OCCOc1ccccc1)OCCOc1ccccc1` the value was inactive: -12.6%.

For `COc1ccc(OP(C)(=O)Nc2ccccc2Br)cc1` (configuration not stated), the activation is inactive: -3.52%. As for `COc1ccccc1OP(C)(=O)Nc1ccc(C)c(C)c1` (configuration not stated), the activation was inactive: 14.4%. As for `Cc1cc(C)cc(OP(C)(=O)Nc2cccc(C(F)(F)F)c2)c1` (configuration not stated), the figure is inactive: 16.4%; as for `CCCCCOc1ccc(NP(C)(=O)Oc2ccc(Cl)cc2Cl)cc1` (configuration not stated), inactive: -25.4%; as for `CP(=O)(Nc1ccccc1)Oc1ccc(F)cc1` (configuration not stated), inactive: 13.7%. With `CCN(CC)CCCOC(=O)C(O)(c1ccccc1)C1CCCCC1` (configuration not stated), the activation was inactive: -20.8%. For `Cc1c([N+](=O)[O-])cc([N+](=O)[O-])c(Br)c1[N+](=O)[O-]` the value was inactive: 5.68%. As for `COc1ccc(OP(C)(=O)Nc2ccc(SC(F)(F)F)cc2)cc1` (configuration not stated), the figure is inactive: -5.19%. As for `CCOC(=O)c1ccc(NP(C)(=O)Oc2ccc(F)cc2)cc1` (configuration not stated), the figure is inactive: 10.5%; as for `O=C(OCCN1CCN(CCOCc2ccccc2)CC1)C(O)(c1ccccc1)c1ccccc1`, inactive: -10.8%; as for `CC(C)c1ccc(OP(C)(=O)Nc2ccc(SC(F)(F)F)cc2)cc1` (configuration not stated), inactive: -2.91%.

Take `Cc1ccccc1NP(C)(=O)Nc1ccccc1C`: the activation was inactive: 8.24%. For `CP(=O)(Nc1ccc2c(c1)OCCO2)Oc1ccccc1` (configuration not stated) the value was inactive: 7.66%; for `CCOP(C)(=S)SCC(=O)NC(C)(CC)C(=O)O` (configuration not stated), inactive: 7.8%. As for `CP(=O)(Nc1ccc(SC(F)(F)F)cc1)Oc1ccc(F)cc1` (configuration not stated), the figure is inactive: -16%; as for `Cc1c(C(c2ccc3c(c2)OCO3)c2c(C)n(C)n(-c3ccccc3)c2=O)c(=O)n(-c2ccccc2)n1C.O=[N+]([O-])c1cc([N+](=O)[O-])c(O)c([N+](=O)[O-])c1`, inactive: 2.56%. For `Cc1cc(-c2cccc3ccccc23)c(C)cn1.O=[N+]([O-])c1cc([N+](=O)[O-])c(O)c([N+](=O)[O-])c1` the value was inactive: -15.2%; for `COc1ccc(NP(C)(=O)Oc2ccccc2OC)cc1` (configuration not stated), inactive: 12.1%; for `CN(C)CCOC(=O)C(O)(c1ccccc1)C1CCCCC1` (configuration not stated), inactive: 0.251%.

For `COc1ccc(OP(C)(=O)Nc2cccc(Br)c2)cc1` (configuration not stated), the activation was inactive: -11.2%.
